From patent US20250002529A1, “NOVEL […] COMPOUNDS, PREPARATION METHODS, COMPOSITIONS AND APPLICATIONS” (Guangzhou Anobri Pharmaceutical Co. Ltd., priority 2021, published 2025)

Parameters: species or system Male Wistar-Hannover rats
Conditions: rat, in vivo, 10 mg/kg

With PF-07321332 [reference compound] the “AUC0~∞” value was 1982 ng·h/mL, the Cmax was 1445 ng/mL and the T1/2 was 2.9 h. The Tmax was 2 h.
